Assay results from patent US20020198208A1, “MEDICINAL PREPARATION AND PROCESS FOR MANUFACTURING THEREOF” (priority 2000, published 2002).

How the values were obtained:
[1] = after introduction into organism
[2] = tested on: macrophages; conditions: inflammatory diseases
[3] = crystalline powder

Nc1cccc2c(=O)[nH][nH]c(=O)c12.[Na] [Tamerit, 5-amino-2,3-dihydrophthalazine-1,4-dione sodium salt]
time to practically complete elimination with expired air and urine [1]: 20 to 60 min
duration of selective inactivation of macrophages [2]: 4 to 8 h
solubility in water [3]: easily soluble in water
